# In PubChem BioAssay AID624263 (National Center for Advancing Translational Sciences (NCATS), 2012):
# The list shows a part of the results, in another mix than the full data. Calls of active or inactive are those of the source. Calls follow the shape of the dose curve; as a rule, active = well fitted activation curve with a large enough effect; inconclusive = small, poorly fitted or top-dose-only effect; inactive = flat fitted curve, though single readings scatter; cell line not stated here.
# Test: A Quantitative High throughput Screen to Identify Chemical Modulators of PINK1 Expression; also: % of control where 0% means no effect; nearly all actives have a fitted effect of over 65% in size
# Settings: PINK1 immunofluorescence, high-content cytometry, 24 h; at 76.6 µM (top of the series)
row,Compound,activation (PINK1 increase)
1,CCC(=O)N(c1ccccc1)C1(COC)CCN(CCn2nnn(CC)c2=O)CC1,inactive: -1.07%
2,CCC(=O)N(c1ccccc1)C1(COC)CCN(CCc2cccs2)CC1,inactive: 0.695%
